Source: US20220024982A1 (Bicycle, published 2022)

molecular target: T1, MT1-MMP Hemopexin domain (PEX) (UniProt P50281 319-511); experiment: FP competition vs tracer 17-88-N006
T1 construct: domain: Hemopexin domain (PEX); Target of the fluorescence polarisation assays; also called hemopexin of MT1-MMP; MMP14
Description: (§1) Subsequently, the non-fluorescent competitor bicyclic peptide (usually just the bicycle core sequence) is titrated, such that it displaces the fluorescent tracer from the target protein. The displacement of the tracer is measured and associated with a drop in fluorescence polarisation. The drop in fluorescence polarisation is proportional to the fraction of target protein bound with the non-fluorescent titrant, and thus is a measure of the affinity of titrant to target protein.
(§2) The raw data is fit to the analytical solution of the cubic equation that describes the equilibria between fluorescent tracer, titrant, and binding protein. The fit requires the value of the affinity of fluorescent tracer to the target protein, which can be determined separately by direct binding FP experiments (see previous section).

Row | Kd [nM] | Binder
1 | 4490 | ACEESFYPECDHCA (3 Cys linked to TATA scaffold) [17-108-02]
2 | 127 | APAPCHIECALLFPKTCA (3 Cys linked to TATA scaffold) [17-120-23-T01]
3 | 113 | APPPCYEECRLLFPRTCA (3 Cys linked to TATA scaffold) [17-120-21-T01]
4 | 598 | ASPPCLTECALLFPKTCA (3 Cys linked to TATA scaffold) [17-120-26-T01]
5 | 258 | ACIDECRLLFPRSCA (3 Cys linked to TATA scaffold) [17-120-08]
6 | 162 | AVPPCVQECALLFPKTCA (3 Cys linked to TATA scaffold) [17-120-29-T01]
7 | 248 | ACIDECALLFPRTCA (3 Cys linked to TATA scaffold) [17-120-20]
8 | 50.2 | HLPPCVTECALLFPKTCA (3 Cys linked to TATA scaffold) [17-120-31-T01]
9 | 68.3 | RLPPCVTECALLFPKTCA (3 Cys linked to TATA scaffold) [17-120-31-T02]
10 | 183 | AALPCQRECALLFPKTCA (3 Cys linked to TATA scaffold) [17-120-12-T01]
11 | 923 | ACSHECALLFPKTCA (3 Cys linked to TATA scaffold) [17-120-00]
12 | 224 | ACETECALLFPRSCA (3 Cys linked to TATA scaffold) [17-120-04]
13 | 192 | APPPCEAECRLLFPKTCA (3 Cys linked to TATA scaffold) [17-120-28-T01]
14 | 194 | AEPACYRECALLFPKTCA (3 Cys linked to TATA scaffold) [17-120-25-T01]
15 | 157 | ALPPCYTECSLLFPKTCA (3 Cys linked to TATA scaffold) [17-120-17-T01]
16 | 53.8 | APPPCVRECALLFPKTCA (3 Cys linked to TATA scaffold) [17-120-09-T01]
17 | 41.5 | APPPCVTECALLFPKTCA (3 Cys linked to TATA scaffold) [17-120-31-T03]
18 | 34.1 | GPPPCVRECALLFPKTCA (3 Cys linked to TATA scaffold) [17-120-09-T04]
19 | 44.2 | APLPCVRECALLFPKTCA (3 Cys linked to TATA scaffold) [17-120-09-T11]
20 | 77.2 | APNPCVRECALLFPKTCA (3 Cys linked to TATA scaffold) [17-120-09-T09]
21 | 32.3 | SPPPCVRECALLFPKTCA (3 Cys linked to TATA scaffold) [17-120-09-T05]
22 | 76.7 | SPPPCARECALLFPKTCA (3 Cys linked to TATA scaffold) [17-120-15-T02]
23 | 38.5 | APDPCVRECALLFPKTCA (3 Cys linked to TATA scaffold) [17-120-09-T10]
24 | 49.8 | NPPPCVRECALLFPKTCA (3 Cys linked to TATA scaffold) [17-120-09-T06]
25 | 23.3 | APPPCVFECALLFPKTCA (3 Cys linked to TATA scaffold) [17-120-35-T01]

Row | Kd [nM] | Binder
26 | 48.1 | EPPPCVRECALLFPKTCA (3 Cys linked to TATA scaffold) [17-120-09-T07]
27 | 62.2 | APAPCVRECALLFPKTCA (3 Cys linked to TATA scaffold) [17-120-09-T12]
28 | 59.9 | APPPCVVECALLFPKTCA (3 Cys linked to TATA scaffold) [17-120-34-T01]
29 | 77.6 | SPPPCVGECALLFPKTCA (3 Cys linked to TATA scaffold) [17-120-33-T01]
30 | 37.5 | HPPPCVRECALLFPKTCA (3 Cys linked to TATA scaffold) [17-120-09-T08]
31 | 69.3 | APHPCVRECALLFPKTCA (3 Cys linked to TATA scaffold) [17-120-09-T13]
32 | 612 | APSPCRHECELLFPKTCA (3 Cys linked to TATA scaffold) [17-120-11-T01]
33 | 604 | ACREECMLLFPKTCA (3 Cys linked to TATA scaffold) [17-120-03]
34 | 132 | APMPCVTECQLLFPKTCA (3 Cys linked to TATA scaffold) [17-120-10-T01]
35 | 273 | ACDVECRLLFPRSCA (3 Cys linked to TATA scaffold) [17-120-07]
36 | 190 | ACLDECKLLFPKTCA (3 Cys linked to TATA scaffold) [17-120-02]
37 | 303 | ACLEECKLLFPKTCA (3 Cys linked to TATA scaffold) [17-120-19]
38 | 189 | ALDPCVRECTLLFPKTCA (3 Cys linked to TATA scaffold) [17-120-13-T01]
39 | 62.4 | APSPCVRECRLLFPKTCA (3 Cys linked to TATA scaffold) [17-120-22-T01]
40 | 63.8 | MPPPCVAECKLLFPKTCA (3 Cys linked to TATA scaffold) [17-120-32-T01]
41 | 126 | AVEPCKRECMLLFPKTCA (3 Cys linked to TATA scaffold) [17-120-24-T01]
42 | 148 | ADRPCTIECALLFPKTCA (3 Cys linked to TATA scaffold) [17-120-14-T01]
43 | 178 | ATQPCARECALLFPKTCA (3 Cys linked to TATA scaffold) [17-120-15-T01]
44 | 55.2 | QISPCVRECALLFPKTCA (3 Cys linked to TATA scaffold) [17-120-09-T02]
45 | 252 | ACHEECRLLFPKTCA (3 Cys linked to TATA scaffold) [17-120-18]
46 | 310 | ACFDECQLLFPKTCA (3 Cys linked to TATA scaffold) [17-120-01]
47 | 394 | AAPPCEVECRLLFPKTCA (3 Cys linked to TATA scaffold) [17-120-27-T01]
48 | 74.4 | ARHPCINECRLLFPKTCA (3 Cys linked to TATA scaffold) [17-120-16-T01]
49 | 46.1 | PLPPCVRECRLLFPKTCA (3 Cys linked to TATA scaffold) [17-120-22-T02]
50 | 78.7 | SPPPCIRECSLLFPKTCA (3 Cys linked to TATA scaffold) [17-120-30-T01]

molecular target: T1, MT1-MMP Hemopexin domain (PEX); experiment: FP competition vs tracer 17-69-12-N004
Source text: (§3) Here, a pre-formed complex of PEX with the fluorescent PEX-binding tracer is titrated with free, non-fluoresceinated bicyclic peptide. Since all 17-69-based peptides are expected to bind at the same site, the titrant will displace the fluorescent tracer from PEX. Dissociation of the complex can be measured quantitatively, and the Kd of the competitor (titrant) to the target protein determined. The advantage of the competition method is that the affinities of non-fluoresceinated bicyclic peptides can be determined accurately and rapidly.
as §1, §2

Row | Kd [nM] | Binder
51 | 8.9 | CPGECFYPPGHRLYCYSE (N-terminal acetyl; 3 Cys linked to TATA scaffold) [Ac-(17-129-23-T01)]
52 | 60.5 | ACEEAFYPCHHPLYRCA (N-terminal acetyl; 3 Cys linked to TATA scaffold) [Ac-(17-126-25)]

molecular target: T1, MT1-MMP Hemopexin domain (PEX); experiment: FP competition vs tracer 17-69-07-N040
Source text: as §3, §1, §2

Row | Kd [nM] | Binder
53 | 678 | ACSSWDKLMCHPYCA (3 Cys linked to TATA scaffold) [17-121-00]
54 | 198 | ACDEQFYPCHHRLYSCA (3 Cys linked to TATA scaffold) [17-126-07]
55 | 165 | ACLEQFYPCEHPLFSCA (3 Cys linked to TATA scaffold) [17-126-09]
56 | 147 | ACEEQFYPCSHPLYTCA (3 Cys linked to TATA scaffold) [17-126-18]
57 | 199 | ACEEQFYPCNHPLNVCA (3 Cys linked to TATA scaffold) [17-126-19]
58 | 131 | ACEEQFYPCGHKLSPCA (3 Cys linked to TATA scaffold) [17-126-21]
59 | 246 | ACEEEFYPCSHPLNPCA (3 Cys linked to TATA scaffold) [17-126-20]
60 | 971 | ACLEQFYPCGDPRLCA (3 Cys linked to TATA scaffold) [17-126-11]
61 | 295 | ACPEQFYPCDHRLYICA (3 Cys linked to TATA scaffold) [17-126-22]
62 | 2900 | ACEEQFYPCGHHLLCA (3 Cys linked to TATA scaffold) [17-126-12]
63 | 409 | ACQEQFYPCNHPLSPCA (3 Cys linked to TATA scaffold) [17-126-23]
64 | 675 | ACEEEFYPCGHPMHPCA (3 Cys linked to TATA scaffold) [17-126-06]
65 | 711 | ACEEEFYPCGHPFHPCA (3 Cys linked to TATA scaffold) [17-126-08]
66 | 737 | ACVEQFYPCGHRHYICA (3 Cys linked to TATA scaffold) [17-126-10]
